Results taken from US20090176817A1, “Method of Treatment of Diarrhea-Predominant Irritable Bowel Syndrome in a Subject” (priority 2005, published 2009).

Sequences of proteins named here, by UniProt entry; tags and fusion partners are left off.
UniProt P08183, whole entry: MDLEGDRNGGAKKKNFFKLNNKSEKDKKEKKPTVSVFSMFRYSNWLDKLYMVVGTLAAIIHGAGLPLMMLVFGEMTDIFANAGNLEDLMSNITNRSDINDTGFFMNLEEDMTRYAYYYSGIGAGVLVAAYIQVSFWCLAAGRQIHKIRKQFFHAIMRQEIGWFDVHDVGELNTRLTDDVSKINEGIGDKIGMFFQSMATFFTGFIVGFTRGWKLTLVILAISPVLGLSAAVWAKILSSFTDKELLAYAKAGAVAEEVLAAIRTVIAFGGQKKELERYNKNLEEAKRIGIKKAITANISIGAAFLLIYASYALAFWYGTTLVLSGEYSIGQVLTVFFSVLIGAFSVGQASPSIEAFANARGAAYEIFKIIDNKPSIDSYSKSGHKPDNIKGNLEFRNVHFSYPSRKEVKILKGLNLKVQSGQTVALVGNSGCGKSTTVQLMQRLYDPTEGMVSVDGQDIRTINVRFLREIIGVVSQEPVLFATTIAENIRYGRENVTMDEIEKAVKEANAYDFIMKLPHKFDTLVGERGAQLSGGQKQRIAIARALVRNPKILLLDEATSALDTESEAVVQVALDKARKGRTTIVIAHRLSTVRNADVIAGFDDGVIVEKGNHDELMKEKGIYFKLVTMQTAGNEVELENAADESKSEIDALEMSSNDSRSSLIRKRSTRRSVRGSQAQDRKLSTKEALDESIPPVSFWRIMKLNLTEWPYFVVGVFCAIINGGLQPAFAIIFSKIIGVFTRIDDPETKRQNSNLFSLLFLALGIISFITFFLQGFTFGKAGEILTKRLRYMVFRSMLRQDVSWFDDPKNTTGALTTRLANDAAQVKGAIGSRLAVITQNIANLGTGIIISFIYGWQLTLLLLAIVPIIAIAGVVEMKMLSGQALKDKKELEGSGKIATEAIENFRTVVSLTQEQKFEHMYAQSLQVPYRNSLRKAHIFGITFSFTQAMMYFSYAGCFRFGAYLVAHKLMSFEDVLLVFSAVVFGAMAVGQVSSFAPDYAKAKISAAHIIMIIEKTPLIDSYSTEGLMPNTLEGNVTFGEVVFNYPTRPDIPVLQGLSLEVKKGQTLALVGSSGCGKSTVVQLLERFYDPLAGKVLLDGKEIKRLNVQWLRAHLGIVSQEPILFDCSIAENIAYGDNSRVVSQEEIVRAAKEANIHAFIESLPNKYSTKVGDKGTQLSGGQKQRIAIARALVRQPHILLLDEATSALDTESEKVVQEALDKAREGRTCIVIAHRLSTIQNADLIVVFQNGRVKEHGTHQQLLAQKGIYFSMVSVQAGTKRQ

Molecular target: T1, human P-glycoprotein (Homo sapiens, UniProt P08183)
T1 construct: expressed in transfected cells; host or cells: PK 1 LLC MDR cells (LLC-PK1 porcine kidney cells expressing human MDR1, by own knowledge)
Assay: Study K.241.6026: in vitro transport by P-glycoprotein in PK 1 LLC MDR cells
Type: in vitro ADME
Details: 3 hours of incubation
Description: Cilansetron easily passes biological membranes, probably including the blood-brain barrier. […] Much higher concentrations, above 1000 ng/mL, were required to saturate P-glycoprotein in vitro.

SMILES: O=C(NCCN1CCN(c2cccc3c2OC[C@H](CO)O3)CC1)c1ccc(F)cc1 [DU 29373, reference compound]
- Membrane Passage (arithmetic mean percentages transported): 30%
- P-gp Factor (ratio of percentages transported): 7
